The entries are a selection whose mix differs from that of the whole data set. Some structures show a salt or complex split into parts, the way the source records it. Active and inactive are the calls of the source.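 How the source made its calls: active means inhibition above a per-plate cutoff, the mean of that plate's test compounds plus 3 SD (cut at about 27% in these data); inactive means the rest.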
These compounds were tested against Muscarinic acetylcholine receptor M5 (Homo sapiens) (UniProt P08912) (assay: human M5 muscarinic receptor antagonists, primary screen, CHO cells, Fluo-8 calcium fluorescence (AID 624040;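 further: 0% = acetylcholine EC80 with DMSO and 100% = DMSO without agonist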)). Details: CHO-hM5 cells, ACh EC80, at 3 µM, stronger effect = higher value.

Amino acid sequences for entries named in this document (tags omitted).
UniProt P08912, whole entry: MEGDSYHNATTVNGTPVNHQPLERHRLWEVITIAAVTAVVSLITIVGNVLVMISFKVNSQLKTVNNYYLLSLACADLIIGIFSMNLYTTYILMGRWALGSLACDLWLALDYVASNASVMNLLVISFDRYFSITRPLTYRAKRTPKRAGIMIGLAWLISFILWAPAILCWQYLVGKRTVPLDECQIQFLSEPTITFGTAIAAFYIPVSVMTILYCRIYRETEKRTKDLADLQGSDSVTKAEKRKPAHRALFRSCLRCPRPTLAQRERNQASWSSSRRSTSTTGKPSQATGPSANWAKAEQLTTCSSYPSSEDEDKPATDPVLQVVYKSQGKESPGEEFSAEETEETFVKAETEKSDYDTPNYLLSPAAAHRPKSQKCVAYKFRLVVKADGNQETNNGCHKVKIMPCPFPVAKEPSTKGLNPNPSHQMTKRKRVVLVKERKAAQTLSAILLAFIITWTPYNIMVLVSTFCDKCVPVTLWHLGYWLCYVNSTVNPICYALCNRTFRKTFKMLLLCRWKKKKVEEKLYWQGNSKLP

Compound | inhibition
CP(=O)(OCCOc1ccccc1)OCCOc1ccccc1 | inactive: 2.86%
CCCCCCCCCCCCCCCC1C[N+](C)(C)CCOP(C)(=O)O1 (stereo not drawn) | inactive: 21.8%
CP(=O)(Nc1ccc(Cl)cc1Cl)Oc1ccccc1 (stereo not drawn) | inactive: 0.07%
COc1ccccc1OP(C)(=O)Nc1ccc(C)c(C)c1 (stereo not drawn) | inactive: 1.89%
COc1ccc(OP(C)(=O)Nc2ccccc2Br)cc1 (stereo not drawn) | inactive: -3.17%
Cc1cc(C)cc(OP(C)(=O)Nc2cccc(C(F)(F)F)c2)c1 (stereo not drawn) | inactive: -18.6%
O=C1C(O)=C([N+](=O)[O-])C(=O)C(O)=C1[N+](=O)[O-] | inactive: 15.8%
COc1ccccc1OP(C)(=O)Nc1ccc(C)cc1C (stereo not drawn) | inactive: -2.23%
CP(=O)(Nc1ccccn1)Oc1ccccc1 (stereo not drawn) | inactive: -11%
CCc1ccc(OP(C)(=O)O)cc1 | inactive: -5.8%
O=[N+]([O-])c1cc([N+](=O)[O-])c(Nc2ccccn2)c([N+](=O)[O-])c1 | inactive: 4.74%
Cc1c(NP(C)(=O)Oc2ccc(C(C)C)cc2)c(=O)n(-c2ccccc2)n1C (stereo not drawn) | inactive: -0.22%
COc1ccc(OP(C)(=O)Nc2ccccn2)cc1 (stereo not drawn) | inactive: -3.84%
COc1ccccc1OP(C)(=O)Nc1ccc(Br)cc1 (stereo not drawn) | inactive: 7.44%
CN(C)C(=O)c1c([N+](=O)[O-])cc([N+](=O)[O-])cc1[N+](=O)[O-] | inactive: -7.71%
CC(C)(C)c1ccc(OP(C)(=O)O)cc1 | inactive: -1.24%
COc1ccccc1OP(C)(=O)Nc1ccccc1Br (stereo not drawn) | inactive: 4.66%
CP(=O)(Nc1ccc(Cl)cc1)Oc1ccc(F)cc1 (stereo not drawn) | inactive: 8.5%
COc1ccccc1OP(C)(=O)Nc1c(C)n(C)n(-c2ccccc2)c1=O (stereo not drawn) | inactive: 3.06%
CCc1ccc(OP(C)(=O)Nc2cccnc2)cc1 (stereo not drawn) | inactive: -9.01%

Compound | inhibition
CP(=O)(Oc1ccccc1)N1CCOC1=O (stereo not drawn) | inactive: -2.79%
COc1ccc(OP(C)(=O)Nc2ccc(Br)cc2)cc1 (stereo not drawn) | inactive: -1.09%
CCOC(=O)c1ccc(NP(C)(=O)Oc2ccc(Cl)cc2)cc1 (stereo not drawn) | inactive: -3.76%
CP(=O)(OC12CC3CC(CC(C3)C1)C2)OC12CC3CC(CC(C3)C1)C2 | inactive: 3.25%
Cc1c(C(c2ccc3c(c2)OCO3)c2c(C)n(C)n(-c3ccccc3)c2=O)c(=O)n(-c2ccccc2)n1C.O=[N+]([O-])c1cc([N+](=O)[O-])c(O)c([N+](=O)[O-])c1 | inactive: 11.6%
O=C(OC1CN2CCC1CC2)c1cccc(Cl)c1 (stereo not drawn) | active: 32%
O=[N+]([O-])c1ccc(OP2(=O)COCCO2)cc1 (stereo not drawn) | inactive: 1.44%
Cc1cc(-c2cccc3ccccc23)c(C)cn1.O=[N+]([O-])c1cc([N+](=O)[O-])c(O)c([N+](=O)[O-])c1 | inactive: 5.15%
O=[N+]([O-])c1cc([N+](=O)[O-])c(NCC2CCS(=O)(=O)C2)c([N+](=O)[O-])c1 (stereo not drawn) | inactive: -9.18%
COc1ccc(NP(C)(=O)Oc2ccccc2OC)cc1 (stereo not drawn) | inactive: -5.73%
COc1ccc(OP(C)(=O)Nc2cccc(Br)c2)cc1 (stereo not drawn) | inactive: 2.94%
CN(C)C1(CNC(=O)c2ccc(Cl)c(S(N)(=O)=O)c2)CCCCC1 | inactive: 8.94%
Cc1ccccc1NP(C)(=O)Nc1ccccc1C | inactive: 0.61%
O=[N+]([O-])c1cc([N+](=O)[O-])c(C(F)(F)F)c([N+](=O)[O-])c1O | inactive: -5.03%
CP(=O)(Nc1ccc2c(c1)OCCO2)Oc1ccccc1 (stereo not drawn) | inactive: -2.98%
CCOP(C)(=S)SCC(=O)NC(C)(CC)C(=O)O (stereo not drawn) | inactive: -5.29%
CP(=O)(Nc1ccc(SC(F)(F)F)cc1)Oc1ccc(F)cc1 (stereo not drawn) | inactive: 18.1%
COc1ccc2c(c1O)-c1c(O)c(OC)cc3c1[C@H](C2)[N+](C)(C)CC3.O=[N+]([O-])c1cc([N+](=O)[O-])c([O-])c([N+](=O)[O-])c1[O-] | inactive: 14.6%
O=C(OC1CN2CCC1CC2)c1ccc([N+](=O)[O-])cc1 (stereo not drawn) | inactive: 4.44%
CP(=O)(Nc1ccccc1F)Oc1ccccc1 (stereo not drawn) | inactive: -5.68%

Compound | inhibition
CC(C)c1ccc(OP(C)(=O)Nc2ccc(SC(F)(F)F)cc2)cc1 (stereo not drawn) | inactive: 6.54%
O=[N+]([O-])c1cc([N+](=O)[O-])c(Nc2ccc(Cl)cc2)c([N+](=O)[O-])c1 | active: 28.4%
CP(=O)(Nc1ccccc1)Oc1ccc(F)cc1 (stereo not drawn) | inactive: -4.97%
CCCCCOc1ccc(NP(C)(=O)Oc2ccc(Cl)cc2Cl)cc1 (stereo not drawn) | inactive: -12.8%
O=[N+]([O-])c1cc([N+](=O)[O-])c(OC2CCCCC2O)c([N+](=O)[O-])c1 (stereo not drawn) | inactive: -7.99%
Cc1c([N+](=O)[O-])cc([N+](=O)[O-])c(Br)c1[N+](=O)[O-] | inactive: 1.5%
O=C(OC1CN2CCC1CC2)c1ccccc1 (stereo not drawn) | active: 70.4%
CCOC(=O)c1ccc(NP(C)(=O)Oc2ccc(F)cc2)cc1 (stereo not drawn) | inactive: -2.73%
COc1ccc(OP(C)(=O)Nc2ccc(SC(F)(F)F)cc2)cc1 (stereo not drawn) | inactive: 4.18%
CCN(CC)CCCNc1ccccc1[N+](=O)[O-].O=[N+]([O-])c1cc([N+](=O)[O-])c(O)c([N+](=O)[O-])c1 | inactive: -1.69%
CC1=NCCc2c1[nH]c1ccccc21.O=[N+]([O-])c1cc([N+](=O)[O-])c(O)c([N+](=O)[O-])c1 | inactive: -2.94%
O=C(O)c1cccc(Nc2c([N+](=O)[O-])cc([N+](=O)[O-])cc2[N+](=O)[O-])c1 | inactive: -1.33%
Cc1ccc(C)c(NP(C)(=O)Oc2ccccc2)c1 (stereo not drawn) | inactive: -10.6%
CP(=O)(Nc1cccc(Br)c1)Oc1ccccc1 (stereo not drawn) | inactive: 2.75%
Cc1cc(C)cc(OP(C)(=O)Nc2ccccn2)c1 (stereo not drawn) | inactive: -7.64%
CCOC(=O)c1ccc(NP(C)(=O)Oc2cc(C)cc(C)c2)cc1 (stereo not drawn) | inactive: 1.48%
Cc1cc(C)cc(OP(C)(=O)Nc2ccc(C)cc2C)c1 (stereo not drawn) | inactive: 5.61%
COc1ccccc1OP(C)(=O)Nc1cccc(Br)c1 (stereo not drawn) | inactive: 4.86%

From PubChem BioAssay AID624040 (The Scripps Research Institute Molecular Screening Center, 2012)
